Target: récepteurs histaminiques H2 (Cavia porcellus, UniProt P47747)
Assay: Isolated guinea-pig atrium (histamine chronotropic effect, H2 blockade)

Protein sequences, listed by entry. Tags and fused reporters are not part of them.
UniProt P47747, whole entry: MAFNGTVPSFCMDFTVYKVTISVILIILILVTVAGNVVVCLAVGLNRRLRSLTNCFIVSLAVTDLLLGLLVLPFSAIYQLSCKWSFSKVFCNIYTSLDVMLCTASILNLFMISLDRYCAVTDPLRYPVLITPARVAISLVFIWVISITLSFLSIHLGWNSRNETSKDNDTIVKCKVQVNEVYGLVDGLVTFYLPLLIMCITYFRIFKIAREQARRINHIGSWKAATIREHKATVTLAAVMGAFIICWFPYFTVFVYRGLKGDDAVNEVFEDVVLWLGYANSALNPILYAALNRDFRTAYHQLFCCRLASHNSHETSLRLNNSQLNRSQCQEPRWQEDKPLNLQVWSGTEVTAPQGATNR

Kb: 115 nM
Structure (SMILES): CN/C(=N/CCSCc1nc[nH]c1C)NC#N [Cimétidine, reference compound]

Source: patent publication EP0180500A1, “Thieno and furo[2,3-c]pyrrole derivatives, process for their preparation and medicaments containing them” (LIPHA, LYONNAISE INDUSTRIELLE PHARMACEUTIQUE, priority 1984, dated 1986)
